Protein sequences, listed by entry. Tags and fused reporters are not part of them. Lines headed by an entry give the natural chain unless they say otherwise; changes in a name come on top.
UniProt Q08499: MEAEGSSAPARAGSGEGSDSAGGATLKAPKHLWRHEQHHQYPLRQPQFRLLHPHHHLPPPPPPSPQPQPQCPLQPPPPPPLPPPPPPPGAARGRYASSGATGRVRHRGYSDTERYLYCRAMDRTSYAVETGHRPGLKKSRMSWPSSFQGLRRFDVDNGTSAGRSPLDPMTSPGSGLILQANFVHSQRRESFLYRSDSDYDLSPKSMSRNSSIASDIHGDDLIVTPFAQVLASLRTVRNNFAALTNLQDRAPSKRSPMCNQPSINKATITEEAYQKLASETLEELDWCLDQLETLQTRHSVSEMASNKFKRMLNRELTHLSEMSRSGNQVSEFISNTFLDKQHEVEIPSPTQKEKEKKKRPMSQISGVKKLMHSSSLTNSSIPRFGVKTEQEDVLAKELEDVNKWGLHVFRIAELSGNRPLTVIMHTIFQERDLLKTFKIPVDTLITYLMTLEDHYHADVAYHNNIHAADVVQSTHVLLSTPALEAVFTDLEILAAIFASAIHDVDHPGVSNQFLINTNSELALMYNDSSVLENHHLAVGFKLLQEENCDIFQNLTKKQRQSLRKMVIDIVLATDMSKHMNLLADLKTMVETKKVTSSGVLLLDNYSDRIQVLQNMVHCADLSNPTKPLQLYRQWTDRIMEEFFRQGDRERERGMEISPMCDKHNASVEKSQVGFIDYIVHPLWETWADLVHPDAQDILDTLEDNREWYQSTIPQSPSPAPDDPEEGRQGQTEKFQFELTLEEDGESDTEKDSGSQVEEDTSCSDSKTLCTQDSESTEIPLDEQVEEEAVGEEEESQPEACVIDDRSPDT

According to ChEMBL document CHEMBL1139269, “Stereoselective inhibition of serotonin re-uptake and phosphodiesterase by dual inhibitors as potential agents for depression” (Bioorg Med Chem, 2009):

Target: 3',5'-cyclic-AMP phosphodiesterase 4D (Homo sapiens, UniProt Q08499)
Experiment: Inhibition of PDE4D2 by rapid fluorescence based assay

IC50: 2.3 nM
SMILES: COc1ccc(C2=NN(CCCCCBr)C(=O)C3CC=CCC23)cc1OC (stereo unspecified)
